Consider 3 compounds from patent US20060204502A1 (priority 2004, published 2006).

Chains of the proteins cited; added tags and fusions are not shown.
UniProt P0DMS8, whole entry: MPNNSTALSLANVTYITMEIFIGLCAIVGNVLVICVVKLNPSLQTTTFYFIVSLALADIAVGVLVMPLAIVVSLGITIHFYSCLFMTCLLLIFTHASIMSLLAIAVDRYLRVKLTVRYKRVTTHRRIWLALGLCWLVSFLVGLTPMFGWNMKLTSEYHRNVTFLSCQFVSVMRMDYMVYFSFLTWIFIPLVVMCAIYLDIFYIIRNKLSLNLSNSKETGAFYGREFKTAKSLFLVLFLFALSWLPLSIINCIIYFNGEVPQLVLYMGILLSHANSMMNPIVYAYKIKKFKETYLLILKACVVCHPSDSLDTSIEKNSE

The target in test [1] is T1, human cloned A3 Adenosine Receptor (Homo sapiens, UniProt P0DMS8).
T1 construct: purchased Research Biochemical International, Natick, Mass., USA; host or cells: HEK-293 cells (transfected), membranes
As to the kind of experiment: Human cloned A3 adenosine receptor binding, [125I]AB-MECA, HEK-293 membranes. The following applies: ratio of Ki values.

For another test, the system named is A375 cells. As to the kind of experiment: Flow cytometry cell cycle (G2/M) and apoptosis (sub-G1) analysis, A375. The test is classed as cell-based, human. The following applies: antagonist 10 μM. Here is the method:
Flow Cytometry Analysis: A375 and NCTC2544 adherent cells were trypsinized, mixed with floating cells, washed with PBS and permeabilised in 70% (vol/vol) ethanol/PBS solution at 4° C. for at least 24 hours. Jurkat, HeL023 and PBMC cells were centrifuged for 10 minutes at 1000×g. The cell pellet was then resuspended and permeabllised in 70% (vol/vol) ethanol/PBS solution at 4° C. for at least 24 hours. The cells were washed with PBS and the DNA was stained with a PBS solution, containing 20 μg/ml of propidium iodide and 100 μg/ml of RNAse, at room temperature for 30 minutes. Cells were analysed by FACScan (Becton-Dickinson) and the content of DNA was evaluated by the Cell-LISYS program (Becton-Dickinson). Cell distribution among cell cycle phases and apoptotic cells was evaluated as previously described (Secchiero et al., 2001). Briefly, the cell cycle distribution is shown as the percentage of cells containing 2n (G1 phase), 4n (G2 and M phases), 4n>x>2n. DNA amount (S phase) judged by propidium iodide staining. The apoptotic population is the percentage of cells with DNA content lower than 2n.
After 24 hours, cells were collected for flow cytometry analysis. PD 98059 was used at 20 uM as an inhibitor of MEK to prevent MEK-1 activation. […]
EC50 values were obtained by analysing G2/M accumulation dose response curve. ECMAX values were obtained by analysing sub-G1 accumulation dose response curve. Paclitaxel values have units of ng/ml.

For `CCN(CC)c1ccc(NC(=O)Nc2nc3nn(C)cc3c3nc(-c4ccco4)nn23)cc1.Cl` [IL-10, N-1-(4-diethylamino-phenyl)-N′—S-[8-methyl-2-(2-furyl)-pyrazolo[4,3-e]1,2,4-triazolo[1,5-c]pyrimidine]-urea], in test [1], the rA1/hA3 worked out at 21.5 and the rA2A/hA3 is listed as 19.4.

As for `CN(C)c1ccc(NC(=O)Nc2nc3nn(C)cc3c3nc(-c4ccco4)nn23)cc1` [IL-11, N-1-(4-dimethylamino-phenyl)-N′-5-[8-methyl-2-(2-furyl)-pyrazolo[4,3-e]1,2,4-triazolo[1,5-c]pyrimidine]-urea], in test [1], the rA1/hA3 is reported as over 6700 and the rA2A/hA3 is on record as over 6700.

In the case of `CCCn1cc2c(nc(NC(=O)Nc3ccc(OC)cc3)n3nc(-c4ccco4)nc23)n1` [MRE3008F20, 5-[[(4-Methoxyphenyl)amino]carbonyl]amino-8-propyl-2-(2-furyl)-pyrazolo[4,3-e]1,2,4-triazolo[1,5-c]pyrimidine], in test [1], the rA1/hA3 is recorded as >34,482 and the rA2A/hA3 is given as 6,872. In addition, in the test with A375 cells, the “fold reduction of paclitaxel EC50 (G2/M accumulation)” value was 1.9 fold, the “fold reduction of paclitaxel ECMAX (apoptosis)” value was determined as 2.0 fold, the “fold reduction of vindesine EC50 (G2/M accumulation)” value is 4.0 fold and the “fold reduction of vindesine ECMAX (apoptosis)” value was found to be 2.1 fold.
